Experimental data published in ChEMBL document CHEMBL1140203, “cis-4-(Piperazin-1-yl)-5,6,7a,8,9,10,11,11a-octahydrobenzofuro[2,3-h]quinazolin-2-amine (A-987306), a new histamine H4R antagonist that blocks pain responses against carrageenan-induced hyperalgesia” (J Med Chem, 2008).
pKi: −log10 of the molar value.

Amino acid sequences for entries named in this document (tags omitted). A change or cut given only in a name is not applied to a line headed by its entry.
UniProt Q9QYN8: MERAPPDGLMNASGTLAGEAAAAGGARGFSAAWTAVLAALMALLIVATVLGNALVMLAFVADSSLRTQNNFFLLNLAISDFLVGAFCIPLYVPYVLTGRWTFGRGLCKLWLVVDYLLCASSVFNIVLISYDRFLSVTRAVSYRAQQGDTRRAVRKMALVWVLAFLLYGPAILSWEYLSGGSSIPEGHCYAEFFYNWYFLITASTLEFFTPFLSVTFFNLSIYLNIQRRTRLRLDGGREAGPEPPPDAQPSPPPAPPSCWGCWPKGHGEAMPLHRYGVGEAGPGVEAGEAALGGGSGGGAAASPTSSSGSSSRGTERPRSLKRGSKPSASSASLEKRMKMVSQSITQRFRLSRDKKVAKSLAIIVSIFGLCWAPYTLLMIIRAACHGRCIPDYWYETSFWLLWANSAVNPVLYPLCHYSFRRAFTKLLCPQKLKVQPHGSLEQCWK

Target: Histamine H3 receptor (Rattus norvegicus, UniProt Q9QYN8)

`CN1CCN(C(=O)c2cc3cc(Cl)ccc3[nH]2)CC1` [JNJ-7777120] showed a pKi of 5.84.
